Assay results: patent publication US20010001713A1, “Composition and method for measuring the foliar uptake of agrochemicals” (priority 1999, published 2001)

Test system: rice plants
Conditions: in vivo

lauryl alcohol ethoxylate [lauryl alcohol ethoxylate(S)]
Recovery (%) of tricyclazole: 68.7%
